IC50 data for 1 compound are collected here from publication PMC12196476, “New Nitrogen-, Oxygen-, and Sulfur-Containing Heterocyclic Compounds as Anti-Colon Cancer Agents: Synthesis, Multitargeted Evaluations, Molecular Docking Simulations and ADMET Predictions” (Pharmaceuticals, 2025).

The assay addresses recombinant human LDHA protein (Homo sapiens, UniProt P00338). Briefly: In vitro LDHA inhibitory assay (NADH consumption). The assay is classed as biochemical. As to conditions: three independent experiments; read-out: Mean IC50 µM ± SD, LDHA. The source says: The LDHA inhibitory efficiencies were investigated on Spectramax M2 spectrofluorometer via measuring the amounts of the consumed NADH^40 using an NAD^+/NADH quantification kit. […]
S3.2.3. In vitro LDHA inhibitory assay.
The LDHA inhibitory activity of the test compounds was investigated using Spectramax M2
spectrofluorometer by measuring the amounts of the consumed NADH [42] employing
NAD+/NADH quantification kit. Briefly, the assay medium containing various concentrations of
each test compound (50, 100, 200 and 300 μg/mL) was incubated in assay medium composed of 20
mM of HEPES-K+ buffer (pH 7.2), 20 μM of NADH, 2 mM of pyruvate and 10 ng of purified
recombinant human LDHA protein for 10 min utes. The activity of LDHA would result in reduction
of pyruvate into lactate with concomitant oxidation of NADH to NAD +. Since NADH (reduced
LDHA, could be inversely quantified by monitoring the change in the intensity of the fluorescence
at 340 nm over a 10-minute period. The rate of the fluorescence change (slope) in treated samples
was compared to that obtained from negative control experiment (100 % enzymatic activity) to
determine the percentage of inhibition. The IC50 value—defined as the compound concentration
required to reduce the luminescence by 50%, compared to untreated control wells—was
determined for each compound from the corresponding dose–response curve generated by […]

One may read the IC50 as the midpoint of a concentration-inhibition curve. Consider `NC(=O)C(=O)O` [SO, sodium oxamate, reference compound], for which the IC50 amounted to 140 ± 7.64 µM.
